≈ marks a conversion by molar mass, not a printed value.
Assays:
physchem = settings: buffer system
[1] = Chemical stability in solution, 7 days storage, HPLC-UV (% remaining peptide); assay type: physicochemical; settings: 7 days in solution, expressed as % remaining peptide
Description: After that time course, the sample was centrifuged for 20 min at 4000 rpm and the supernatant was analysed with HPLC-UV.
For determination of the amount of the remaining peptide, the peak areas of the target compound at t0 and t7 were compared, resulting in “% remaining peptide”, following the equation % remaining peptide=[(peak area peptide t7)×100]/peak area peptide t0.
The chemical stability is expressed as “% remaining peptide”.

Compound | solubility at 2 h (physchem; pH 4.5) | solubility at 2 h (physchem; pH 7.4) | Stability pH4.5 ([1]; pH 4.5, 25° C.) | Stability pH7.4 ([1]; pH 7.4, 25° C.) | Stability pH4.5 ([1]; pH 4.5, 40° C.) | Stability pH7.4 ([1]; pH 7.4, 40° C.)
CC[C@H](C)[C@H](NC(=O)[C@H](CC(C)C)NC(=O)[C@H](Cc1c[nH]c2ccccc12)NC(=O)[C@H](CCC(=O)O)NC(=O)[C@@H](NC(=O)[C@H](Cc1ccccc1)NC(=O)[C@H](CC(=O)O)NC(=O)[C@H](CCCCN)NC(=O)[C@H](C)NC(=O)[C@H](CC(C)C)NC(=O)[C@H](CCC(N)=O)NC(=O)[C@H](CCC(=O)O)NC(=O)[C@H](CC(=O)O)NC(=O)[C@H](CC(C)C)NC(=O)[C@H](CC(C)C)NC(=O)[C@H](CCCCN)NC(=O)[C@H](CO)NC(=O)[C@H](CC(C)C)NC(=O)[C@H](CC(=O)O)NC(=O)[C@H](CO)NC(=O)[C@@H](NC(=O)[C@H](Cc1ccccc1)NC(=O)[C@@H](NC(=O)CNC(=O)[C@H](Cc1c[nH]cn1)NC(=O)[C@@H](CO)NC(=O)[C@@H](N)Cc1c[nH]cn1)[C@@H](C)O)[C@@H](C)O)[C@@H](C)CC)C(=O)N[C@@H](C)C(=O)NCC(=O)NCC(=O)N1CCC[C@H]1C(=O)N[C@@H](CO)C(=O)N[C@@H](CO)C(=O)NCC(=O)N[C@@H](C)C(=O)N1CCC[C@H]1C(=O)N1CCC[C@H]1C(=O)N1CCC[C@H]1C(=O)N[C@@H](CO)C(N)=O [SEQ ID NO 8, H-dSer-HGTFTSDLSKLLDEQLAKDFIEWLIAGGPSSGAPPPS-NH2] | 934 µg/mL (≈ 227 µM) | > 1000 µg/mL | 100 | 77.5 |  | 
CC[C@H](C)[C@H](NC(=O)[C@H](CC(C)C)NC(=O)[C@H](Cc1c[nH]c2ccccc12)NC(=O)[C@H](CCC(=O)O)NC(=O)[C@@H](NC(=O)[C@H](Cc1ccccc1)NC(=O)[C@H](CC(=O)O)NC(=O)[C@H](CCCCN)NC(=O)[C@H](C)NC(=O)[C@H](CCCNC(=N)N)NC(=O)[C@H](CCC(N)=O)NC(=O)[C@H](CCC(=O)O)NC(=O)[C@H](CC(=O)O)NC(=O)[C@H](CC(C)C)NC(=O)[C@H](CC(C)C)NC(=O)[C@H](CCCCN)NC(=O)[C@H](CO)NC(=O)[C@H](CC(C)C)NC(=O)[C@H](CC(=O)O)NC(=O)[C@H](CO)NC(=O)[C@@H](NC(=O)[C@H](Cc1ccccc1)NC(=O)[C@@H](NC(=O)CNC(=O)[C@H](CCC(N)=O)NC(=O)[C@@H](CO)NC(=O)[C@@H](N)Cc1c[nH]cn1)[C@@H](C)O)[C@@H](C)O)[C@@H](C)CC)C(=O)N[C@@H](C)C(=O)NCC(=O)NCC(=O)N1CCC[C@H]1C(=O)N[C@@H](CO)C(=O)N[C@@H](CO)C(=O)NCC(=O)N[C@@H](C)C(=O)N1CCC[C@H]1C(=O)N1CCC[C@H]1C(=O)N1CCC[C@H]1C(=O)N[C@@H](CO)C(N)=O [compound 5] | > 1000 µg/mL | > 1000 µg/mL |  |  | 92.6 | 96.5

Source: patent US9694053B2, “Dual GLP-1/glucagon receptor agonists” (Sanofi, priority 2013, dated 2017)
